For assay [1], the target named is Androgen Receptor (Homo sapiens, UniProt P10275). Put plainly: Androgen Receptor ELISA assay (PathScan AR ELISA) in VCaP cells: AR degradation, Dmax and DC50. Format: cell-based. Background: ELISA stands for enzyme-linked immunosorbent assay.
For assay [2], the target named is Androgen Receptor (Homo sapiens, UniProt P10275+P40337, T878A). Put plainly: Androgen Receptor ELISA assay (PathScan AR ELISA) in LNCaP cells: AR degradation, Dmax and DC50. The format is cell-based.

Amino acid sequences for entries named in this document (tags omitted).
UniProt P10275, whole entry: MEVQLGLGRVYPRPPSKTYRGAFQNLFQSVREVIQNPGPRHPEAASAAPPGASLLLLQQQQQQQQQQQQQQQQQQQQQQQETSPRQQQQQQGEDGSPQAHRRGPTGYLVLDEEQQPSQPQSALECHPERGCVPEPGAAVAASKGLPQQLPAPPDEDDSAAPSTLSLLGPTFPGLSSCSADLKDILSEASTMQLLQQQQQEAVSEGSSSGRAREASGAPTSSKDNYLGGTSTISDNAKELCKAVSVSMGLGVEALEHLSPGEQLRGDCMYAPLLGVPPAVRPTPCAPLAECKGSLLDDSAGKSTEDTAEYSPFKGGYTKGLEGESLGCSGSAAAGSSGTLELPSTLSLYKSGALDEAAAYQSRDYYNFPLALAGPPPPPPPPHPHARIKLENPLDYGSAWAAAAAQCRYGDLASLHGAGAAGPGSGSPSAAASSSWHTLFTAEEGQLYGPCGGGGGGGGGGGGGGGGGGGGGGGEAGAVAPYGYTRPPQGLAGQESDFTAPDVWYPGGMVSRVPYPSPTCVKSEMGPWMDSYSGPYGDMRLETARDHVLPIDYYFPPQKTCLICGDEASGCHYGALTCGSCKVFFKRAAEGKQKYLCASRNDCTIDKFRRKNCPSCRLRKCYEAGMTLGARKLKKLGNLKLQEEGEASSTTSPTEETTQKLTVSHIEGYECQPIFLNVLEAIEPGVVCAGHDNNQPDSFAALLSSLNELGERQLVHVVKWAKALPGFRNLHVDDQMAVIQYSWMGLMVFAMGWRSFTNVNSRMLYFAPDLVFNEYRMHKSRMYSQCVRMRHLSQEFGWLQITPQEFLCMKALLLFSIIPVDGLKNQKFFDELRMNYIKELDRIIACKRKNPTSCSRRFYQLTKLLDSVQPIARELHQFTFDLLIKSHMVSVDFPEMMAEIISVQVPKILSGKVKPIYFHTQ
UniProt P10275, whole entry T878A: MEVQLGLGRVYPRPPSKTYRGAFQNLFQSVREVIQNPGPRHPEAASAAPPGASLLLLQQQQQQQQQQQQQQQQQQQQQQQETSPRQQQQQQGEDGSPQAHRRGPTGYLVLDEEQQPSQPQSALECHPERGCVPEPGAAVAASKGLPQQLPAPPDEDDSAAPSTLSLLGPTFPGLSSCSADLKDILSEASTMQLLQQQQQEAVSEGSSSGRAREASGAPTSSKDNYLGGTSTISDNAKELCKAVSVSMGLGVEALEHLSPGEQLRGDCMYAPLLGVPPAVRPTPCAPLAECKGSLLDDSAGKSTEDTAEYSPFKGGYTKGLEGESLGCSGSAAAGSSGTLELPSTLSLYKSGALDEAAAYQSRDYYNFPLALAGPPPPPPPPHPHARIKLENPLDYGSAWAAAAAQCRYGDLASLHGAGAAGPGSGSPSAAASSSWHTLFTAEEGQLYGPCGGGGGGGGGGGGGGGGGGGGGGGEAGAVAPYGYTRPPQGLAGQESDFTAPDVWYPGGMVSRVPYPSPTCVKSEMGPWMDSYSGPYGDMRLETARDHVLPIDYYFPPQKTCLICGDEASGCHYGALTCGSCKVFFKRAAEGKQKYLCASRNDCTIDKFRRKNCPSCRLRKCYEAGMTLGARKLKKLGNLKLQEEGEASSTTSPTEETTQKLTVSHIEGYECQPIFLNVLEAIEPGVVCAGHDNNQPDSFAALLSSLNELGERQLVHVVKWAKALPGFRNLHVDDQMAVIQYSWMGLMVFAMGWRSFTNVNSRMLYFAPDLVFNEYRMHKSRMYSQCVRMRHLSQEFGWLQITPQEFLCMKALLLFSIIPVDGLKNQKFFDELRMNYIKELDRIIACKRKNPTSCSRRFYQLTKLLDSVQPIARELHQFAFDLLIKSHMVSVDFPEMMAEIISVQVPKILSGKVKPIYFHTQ
UniProt P40337, whole entry: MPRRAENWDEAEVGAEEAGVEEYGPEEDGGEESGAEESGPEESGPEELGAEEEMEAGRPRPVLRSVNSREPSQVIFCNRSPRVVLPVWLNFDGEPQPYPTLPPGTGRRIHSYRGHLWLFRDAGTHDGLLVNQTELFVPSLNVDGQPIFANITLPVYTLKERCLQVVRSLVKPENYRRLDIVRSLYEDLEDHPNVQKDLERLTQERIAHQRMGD
UniProt Q15369, whole entry partner: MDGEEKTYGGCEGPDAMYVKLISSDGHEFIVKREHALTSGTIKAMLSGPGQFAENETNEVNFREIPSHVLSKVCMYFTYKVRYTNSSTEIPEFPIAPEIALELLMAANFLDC
UniProt Q15370, whole entry partner: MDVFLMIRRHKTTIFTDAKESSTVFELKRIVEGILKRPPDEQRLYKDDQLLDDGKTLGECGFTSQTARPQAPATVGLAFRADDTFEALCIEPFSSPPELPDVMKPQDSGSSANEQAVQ

The results in this text go back to patent publication US11427548B2 (Arvinas Operations, Inc., priority 2015, dated 2022).

Where two headings read alike, the source gives them in different places.

As for `Cc1ncoc1-c1ccc([C@H](C)NC(=O)[C@@H]2C[C@@H](O)CN2C(=O)[C@@H](NC(=O)COC[C@H]2CC3(C2)C[C@H](COc2ccc(N4C(=S)N(c5ccc(C#N)c(C(F)(F)F)c5)C(=O)C4(C)C)cc2)C3)C(C)(C)C)cc1` (single isomer, unassigned), the “VCaP Dmax (%)” value at Androgen Receptor [1] (Table 34) is on record as “++++ (71% ≤ Dmax)”. Also, the DC50 at Androgen Receptor [1] (read-out: VCaP DC50, Table 34) was < 50 nM.

Take `Cc1ncsc1-c1ccc(CNC(=O)[C@@H]2C[C@@H](O)CN2C(=O)[C@H](C(C)C)N2Cc3ccccc3C2=O)c(OCCOCCOCCOCCOCCOCCOc2ccc(N3C(=S)N(c4ccc(C#N)c(C(F)(F)F)c4)C(=O)C3(C)C)cc2)c1`: at Androgen Receptor [2] (highest percentage of Androgen Receptor degradation), the “LNCaP Dmax (%)” value is recorded as “+++ (51% ≤ Dmax ≤ 70%)”. The DC50 on Androgen Receptor [2] (read-out: LNCaP DC50, concentration that caused 50% Androgen Receptor degradation) lay within 51 to 500 nM.

On to `C[C@H](NC(=O)[C@@H]1C[C@@H](O)CN1C(=O)[C@@H](NC(=O)COCCCOCCCCCOc1ccc(N2C(=S)N(c3ccc(C#N)c(C(F)(F)F)c3)C(=O)C2(C)C)cc1)C(C)(C)C)c1ccc(-n2ccnc2)cc1`, for which the “VCaP Dmax (%)” value on Androgen Receptor [1] (Table 36) is reported as “++ (26% ≤ Dmax ≤ 50%)”. For the same molecule, at Androgen Receptor [1] (read-out: VCaP DC50, Table 36), the DC50 was > 501 nM.

On to `Cc1ncoc1-c1ccc(CNC(=O)[C@@H]2C[C@@H](O)CN2C(=O)[C@@H](NC(=O)COCCCCC(=O)N2CC=C(c3ccc(N4C(=S)N(c5ccc(C#N)c(Cl)c5)C(=O)C4(C)C)cc3)CC2)C(C)(C)C)cc1`, for which the “VCaP Dmax (%)” value on Androgen Receptor [1] (Table 34) is on record as “+++ (51% ≤ Dmax ≤ 70%)”. Further, the DC50 at Androgen Receptor [1] (read-out: VCaP DC50, Table 34) was < 50 nM.
